# Results reported in PubChem BioAssay (NCI).
#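 48-hour exposure; five concentrations; linearly interpolated endpoints. Abbreviation: GI50, concentration required for 50% inhibition of growth. TGI marks complete inhibition of growth.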
# Columns and labels:
# Test in all cases: NCI-60 cell line screen, 48 h
# NCI-H460 lung = system: NCI-H460 lung
# IGROV1 ovarian = system: IGROV1 ovarian
# NCI-H522 lung = system: NCI-H522 lung
# HOP-92 NSCLC = system: HOP-92 NSCLC
# T-47D breast = system: T-47D breast
# OVCAR-8 ovarian = system: OVCAR-8 ovarian
# HCT-116 colon = system: HCT-116 colon
# UACC-257 melanoma = system: UACC-257 melanoma
# RPMI-8226 leukemia = system: RPMI-8226 leukemia
# MDA-N = system: MDA-N
# ACHN renal = system: ACHN renal
# A549 NSCLC = system: A549 NSCLC
# BT-549 breast = system: BT-549 breast
# M14 melanoma = system: M14 melanoma
# MDA-MB-231 breast = system: MDA-MB-231 breast
# NCI-H322M lung = system: NCI-H322M lung
# DU-145 prostate = system: DU-145 prostate
# COLO 205 colon = system: COLO 205 colon
# SNB-19 CNS = system: SNB-19 CNS
# MCF7 breast = system: MCF7 breast
# NCI/ADR-RES ovarian = system: NCI/ADR-RES ovarian
# SW-620 colon = system: SW-620 colon
# OVCAR-5 ovarian = system: OVCAR-5 ovarian
# HOP-62 NSCLC = system: HOP-62 NSCLC
# HL-60(TB) leukemia = system: HL-60(TB) leukemia
# EKVX NSCLC = system: EKVX NSCLC
# SK-MEL-5 melanoma = system: SK-MEL-5 melanoma
# UO-31 renal = system: UO-31 renal
# SK-MEL-2 melanoma = system: SK-MEL-2 melanoma
# SK-MEL-28 melanoma = system: SK-MEL-28 melanoma
# SF-539 CNS = system: SF-539 CNS
# SK-OV-3 ovarian = system: SK-OV-3 ovarian
# NCI-H23 lung = system: NCI-H23 lung
# OVCAR-3 ovarian = system: OVCAR-3 ovarian
# OVCAR-4 ovarian = system: OVCAR-4 ovarian
# 786-0 renal = system: 786-0 renal
# SF-268 CNS = system: SF-268 CNS
# A498 renal = system: A498 renal
# SN12C renal = system: SN12C renal
# NCI-H226 lung = system: NCI-H226 lung
# HCT-15 colon = system: HCT-15 colon
# HS 578T breast = system: HS 578T breast
# MALME-3M melanoma = system: MALME-3M melanoma
# SF-295 CNS = system: SF-295 CNS
# K-562 leukemia = system: K-562 leukemia
# HT29 colon = system: HT29 colon
# CCRF-CEM leukemia = system: CCRF-CEM leukemia
# UACC-62 melanoma = system: UACC-62 melanoma
# CAKI-1 renal = system: CAKI-1 renal
# MDA-MB-435 = system: MDA-MB-435
# RXF 393 renal = system: RXF 393 renal
# LOX IMVI melanoma = system: LOX IMVI melanoma
# U251 CNS = system: U251 CNS
# TK-10 renal = system: TK-10 renal
# MOLT-4 leukemia = system: MOLT-4 leukemia
# SR leukemia = system: SR leukemia
# HCC-2998 colon = system: HCC-2998 colon
# KM12 colon = system: KM12 colon
# SNB-75 CNS = system: SNB-75 CNS
# PC-3 prostate = system: PC-3 prostate
smiles,measurement,setting,value
CC(COC(=S)OCC(C)([N+](=O)[O-])[N+](=O)[O-])([N+](=O)[O-])[N+](=O)[O-],GI50,NCI-H460 lung,21.1 µM
same,TGI,NCI-H460 lung,48.4 µM
same,GI50,IGROV1 ovarian,33.5 µM
same,TGI,IGROV1 ovarian,> 100 µM
same,GI50,NCI-H522 lung,12.5 µM
same,TGI,NCI-H522 lung,26.9 µM
same,GI50,HOP-92 NSCLC,29 µM
same,TGI,HOP-92 NSCLC,93.6 µM
same,GI50,T-47D breast,30.4 µM
same,TGI,T-47D breast,99.1 µM
same,GI50,OVCAR-8 ovarian,18 µM
same,TGI,OVCAR-8 ovarian,41.4 µM
same,GI50,HCT-116 colon,26.5 µM
same,TGI,HCT-116 colon,78.8 µM
same,GI50,UACC-257 melanoma,25.2 µM
same,TGI,UACC-257 melanoma,76.5 µM
same,GI50,RPMI-8226 leukemia,26.2 µM
same,TGI,RPMI-8226 leukemia,74 µM
same,GI50,MDA-N,33 µM
same,TGI,MDA-N,> 100 µM
same,GI50,ACHN renal,33.1 µM
same,TGI,ACHN renal,> 100 µM
same,GI50,A549 NSCLC,41.1 µM
same,TGI,A549 NSCLC,> 100 µM
same,GI50,BT-549 breast,20.5 µM
same,TGI,BT-549 breast,37.7 µM
same,GI50,M14 melanoma,28.8 µM
same,TGI,M14 melanoma,86.8 µM
same,GI50,MDA-MB-231 breast,26.7 µM
same,TGI,MDA-MB-231 breast,> 100 µM
same,GI50,NCI-H322M lung,29.8 µM
same,TGI,NCI-H322M lung,> 100 µM
same,GI50,DU-145 prostate,31.3 µM
same,TGI,DU-145 prostate,> 100 µM
same,GI50,COLO 205 colon,17.1 µM
same,TGI,COLO 205 colon,31.1 µM
same,GI50,SNB-19 CNS,40 µM
same,TGI,SNB-19 CNS,> 100 µM
same,GI50,MCF7 breast,22.6 µM
same,TGI,MCF7 breast,59.6 µM
same,GI50,NCI/ADR-RES ovarian,27.6 µM
same,TGI,NCI/ADR-RES ovarian,96.5 µM
same,GI50,SW-620 colon,30.1 µM
same,TGI,SW-620 colon,> 100 µM
same,GI50,OVCAR-5 ovarian,36.8 µM
same,TGI,OVCAR-5 ovarian,> 100 µM
same,GI50,HOP-62 NSCLC,44.3 µM
same,TGI,HOP-62 NSCLC,> 100 µM
same,GI50,HL-60(TB) leukemia,24.8 µM
same,TGI,HL-60(TB) leukemia,55 µM
same,GI50,EKVX NSCLC,33.6 µM
same,TGI,EKVX NSCLC,> 100 µM
same,GI50,SK-MEL-5 melanoma,18.9 µM
same,TGI,SK-MEL-5 melanoma,33.4 µM
same,GI50,UO-31 renal,41.6 µM
same,TGI,UO-31 renal,> 100 µM
same,GI50,SK-MEL-2 melanoma,26.8 µM
same,TGI,SK-MEL-2 melanoma,81.2 µM
same,GI50,SK-MEL-28 melanoma,49 µM
same,TGI,SK-MEL-28 melanoma,> 100 µM
same,GI50,SF-539 CNS,33.8 µM
same,TGI,SF-539 CNS,> 100 µM
same,GI50,SK-OV-3 ovarian,40.4 µM
same,TGI,SK-OV-3 ovarian,> 100 µM
same,GI50,NCI-H23 lung,16.8 µM
same,TGI,NCI-H23 lung,41.2 µM
same,GI50,OVCAR-3 ovarian,23.9 µM
same,TGI,OVCAR-3 ovarian,63.3 µM
same,GI50,OVCAR-4 ovarian,34.7 µM
same,TGI,OVCAR-4 ovarian,> 100 µM
same,GI50,786-0 renal,39.8 µM
same,TGI,786-0 renal,> 100 µM
same,GI50,SF-268 CNS,30.9 µM
same,TGI,SF-268 CNS,88.2 µM
same,GI50,A498 renal,> 100 µM
same,TGI,A498 renal,> 100 µM
same,GI50,SN12C renal,36.9 µM
same,TGI,SN12C renal,> 100 µM
same,GI50,NCI-H226 lung,31.7 µM
same,TGI,NCI-H226 lung,> 100 µM
same,GI50,HCT-15 colon,16.3 µM
same,TGI,HCT-15 colon,31.2 µM
same,GI50,HS 578T breast,39.5 µM
same,TGI,HS 578T breast,> 100 µM
same,GI50,MALME-3M melanoma,31.8 µM
same,TGI,MALME-3M melanoma,81 µM
same,GI50,SF-295 CNS,44.7 µM
same,TGI,SF-295 CNS,> 100 µM
same,GI50,K-562 leukemia,28.3 µM
same,TGI,K-562 leukemia,82.7 µM
same,GI50,HT29 colon,15.8 µM
same,TGI,HT29 colon,33 µM
same,GI50,CCRF-CEM leukemia,25.6 µM
same,TGI,CCRF-CEM leukemia,75.5 µM
same,GI50,UACC-62 melanoma,34.1 µM
same,TGI,UACC-62 melanoma,> 100 µM
same,GI50,CAKI-1 renal,20.9 µM
same,TGI,CAKI-1 renal,60.1 µM
same,GI50,MDA-MB-435,30.2 µM
same,TGI,MDA-MB-435,91.3 µM
same,GI50,RXF 393 renal,23.1 µM
same,TGI,RXF 393 renal,54 µM
same,GI50,LOX IMVI melanoma,16.6 µM
same,TGI,LOX IMVI melanoma,34.4 µM
same,GI50,U251 CNS,28.8 µM
same,TGI,U251 CNS,83.6 µM
same,GI50,TK-10 renal,26.1 µM
same,TGI,TK-10 renal,> 100 µM
same,GI50,MOLT-4 leukemia,27.4 µM
same,TGI,MOLT-4 leukemia,65.9 µM
same,GI50,SR leukemia,47.1 µM
same,TGI,SR leukemia,> 100 µM
same,GI50,HCC-2998 colon,36.5 µM
same,TGI,HCC-2998 colon,> 100 µM
same,GI50,KM12 colon,17.7 µM
same,TGI,KM12 colon,32.7 µM
same,GI50,SNB-75 CNS,38.6 µM
same,TGI,SNB-75 CNS,> 100 µM
same,GI50,PC-3 prostate,34 µM
same,TGI,PC-3 prostate,> 100 µM
